Experimental data as given in patent US9376425B2, “Heterocyclic compounds as MDM2 inhibitors for the treatment of cancer” (AMGEN INC., priority 2011, dated 2016).

Chains of the proteins cited; added tags and fusions are not shown. Residues count along the entry.
UniProt Q00987, 1-188 limits assumed: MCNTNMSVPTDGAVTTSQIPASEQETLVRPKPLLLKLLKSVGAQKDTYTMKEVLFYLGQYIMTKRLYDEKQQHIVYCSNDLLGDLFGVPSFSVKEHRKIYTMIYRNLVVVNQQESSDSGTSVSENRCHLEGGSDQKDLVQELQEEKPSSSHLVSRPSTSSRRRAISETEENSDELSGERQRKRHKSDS

Molecular target: human MDM2 (GST-hMDM2 1-188), interaction with biotinylated-p53 (1-83) (Homo sapiens, UniProt Q00987)
Test: improved HTRF assay (HTRF2 assay), inhibition of HDM2-p53 interaction
Settings: read-out: HTRF2 IC50; 0.2 nM GST-hMDM2, 0.5 nM biotinylated-p53, 100 mM KF

| SMILES | IC50 |
| --- | --- |
| CCC(C)S(=O)(=O)C[C@H](CC)N1C(=O)C(CC(=O)O)O[C@H](c2cccc(Cl)c2)[C@H]1c1ccc(Cl)cc1 (single isomer, unassigned) [Example 280] | 2 nM |
| CC(C)S(=O)(=O)C(C)[C@H](C1CC1)N1C(=O)C(CC(=O)O)O[C@H](c2cccc(Cl)c2)[C@H]1c1ccc(Cl)cc1 (single isomer, unassigned) | 3 nM |
| CCC(C)S(=O)(=O)C[C@H](CC)N1C(=O)C(CC(=O)O)O[C@H](c2cccc(Cl)c2)[C@H]1c1ccc(Cl)cc1 (single isomer, unassigned) [Example 281] | 4 nM |
